Laboratory results as given in PubChem BioAssay AID504621 (Broad Institute, 2011).
The entries are a selection whose mix differs from that of the whole data set. Some tests of the compounds listed are not included; inactive here does not mean inactive elsewhere. Active and inactive are the calls of the source.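 The calls were made as follows: active = every replicate shows inhibition above about 80%, whatever the replicate mean (limit read from the data); inconclusive = mean inhibition reaches the set limit but some replicate falls short; inactive = the rest.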

Experiment: growth inhibition of PfHsp90-expressing yeast, primary screen, antimalarial PfHsp90 inhibitor project, S. cerevisiae, BacTiter-Glo luminescence, single point, set 2 (AID 504621);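 also: yeast relying on Plasmodium falciparum Hsp90 in place of its own; 0% = DMSO neutral controls and 100% = 20 µM radicicol positive controls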
Conditions: BacTiter-Glo ATP, 48 h, at 9.4 µM, active compounds read high, yeast lacking PDR1 and PDR3 efflux regulators

| Compound | inhibition |
| --- | --- |
| O=C(NCC1(N2CCCCC2)CCCCC1)c1cccc(Cl)c1 | inactive: 4.8% |
| COc1cccc(C(=O)NCC2(N3CCCCC3)CCCCC2)c1 | inactive: 0.693% |
| COc1ccc(Cl)cc1C(=O)NCC1(N(C)C)CCCCC1 | inactive: 2.29% |
| COc1cc(C(=O)NCC2(N(C)C)CCCCC2)c([N+](=O)[O-])cc1OC | inactive: -6.42% |
| CN(C)C1(CNC(=O)c2ccc(Br)cc2)CCCCC1 | inactive: 1.15% |
| CC(C)Oc1ccc(C(=O)NCC2(N(C)C)CCCCC2)cc1 | inactive: 3.67% |
| O=C(OCCN1CCCC1)C(O)(c1ccccc1)c1ccccc1 | inactive: -2.41% |
| CN(C)c1cccc(C(=O)NCC2(N(C)C)CCCCC2)c1 | inactive: -11% |
| COc1ccc(Br)c(C(=O)NCC2(N3CCCCC3)CCCCC2)c1 | inactive: 10.6% |
| O=C(OC1CN2CCC1CC2)C(CO)(c1ccccc1)c1ccccc1 (stereo not given) | inactive: 5.85% |
| Cc1ccc(C(=O)NCC2(N3CCCCC3)CCCCC2)cc1 | inactive: 12.6% |
| CCN(CC)CC(C)C(C)OC(=O)C(O)(c1ccccc1)c1ccccc1 (stereo not given) | inactive: 3.41% |
| COc1cc(SC)ccc1C(=O)NCC1(N(C)C)CCCCC1 | inactive: 0.444% |
| CC(C)N1C(=O)CC2(CCN(CCOC(=O)C(O)(c3ccccc3)c3ccccc3)CC2)C1=O | inactive: 0.45% |
| CN1[C@@H]2CC[C@H]1CC(OC(=O)C(O)(c1ccccc1)c1ccccc1)C2 (stereo not given in full) | inactive: -29.3% |
| O=C(NCC1(N2CCCCC2)CCCCC1)c1cc([N+](=O)[O-])ccc1Cl | inactive: -38.7% |
| COc1ccc(C(=O)NCC2(N(C)C)CCCCC2)cc1 | inactive: 11.9% |
| Cc1cc(C(=O)NCC2(N3CCCCC3)CCCCC2)ccc1[N+](=O)[O-] | inactive: 17.2% |
| CCN1CCCC(OC(=O)C2(O)c3ccccc3C=Cc3ccccc32)C1 (stereo not given) | inactive: 19.8% |
| O=C(NCC1(N2CCCCC2)CCCCC1)c1cccc(Br)c1 | inactive: 23.4% |
| C=CCN1CCN(CCOC(=O)C(O)(c2ccccc2)c2ccccc2)CC1 | inactive: -22.9% |
| O=C(NCC1(N2CCCCC2)CCCCC1)c1cc(F)c(F)cc1Cl | inactive: 20.2% |
| Cc1ccccc1C(=O)NCC1(N2CCCCC2)CCCCC1 | inactive: 3% |
| CN(C)C1CCCC1OC(=O)C(O)(c1ccccc1)c1ccccc1 (stereo not given) | inactive: -16.8% |
| CN(C)c1ccc(C(=O)NCC2(N(C)C)CCCCC2)cc1 | inactive: 6.99% |
